The text below walks through data of ChEMBL document CHEMBL1145166, “Dipeptides as effective prodrugs of the unnatural amino acid (+)-2-aminobicyclo[3.1.0]hexane-2,6-dicarboxylic acid (LY354740), a selective group II metabotropic glutamate receptor agonist” (J Med Chem, 2005).

The chains behind the UniProt entries cited, without tags or fusion partners. Where a name states a change or a piece, a line headed by the entry shows the natural chain unless it says otherwise.
UniProt P31421: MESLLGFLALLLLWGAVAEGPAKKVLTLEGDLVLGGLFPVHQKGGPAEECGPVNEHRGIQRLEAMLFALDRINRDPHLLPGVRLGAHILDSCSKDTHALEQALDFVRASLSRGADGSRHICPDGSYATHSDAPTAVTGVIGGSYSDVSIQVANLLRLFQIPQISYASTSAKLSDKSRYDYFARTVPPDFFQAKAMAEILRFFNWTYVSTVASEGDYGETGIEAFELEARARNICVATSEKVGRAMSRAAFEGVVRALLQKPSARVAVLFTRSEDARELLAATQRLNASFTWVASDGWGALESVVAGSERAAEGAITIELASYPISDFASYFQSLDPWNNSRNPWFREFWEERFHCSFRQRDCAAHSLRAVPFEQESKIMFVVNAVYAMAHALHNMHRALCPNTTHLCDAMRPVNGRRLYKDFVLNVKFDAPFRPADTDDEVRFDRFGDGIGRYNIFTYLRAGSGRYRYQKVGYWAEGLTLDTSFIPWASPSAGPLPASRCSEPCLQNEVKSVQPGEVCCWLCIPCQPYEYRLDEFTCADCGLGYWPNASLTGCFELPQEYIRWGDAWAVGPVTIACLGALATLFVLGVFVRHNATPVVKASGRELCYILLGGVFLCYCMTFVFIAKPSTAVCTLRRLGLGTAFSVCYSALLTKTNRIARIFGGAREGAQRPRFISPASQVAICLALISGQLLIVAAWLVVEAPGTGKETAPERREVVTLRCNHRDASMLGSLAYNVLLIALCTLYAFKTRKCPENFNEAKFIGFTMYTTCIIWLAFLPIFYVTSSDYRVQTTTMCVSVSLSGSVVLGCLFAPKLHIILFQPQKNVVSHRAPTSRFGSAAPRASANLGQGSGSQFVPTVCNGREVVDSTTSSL

This assay concerns the target Metabotropic glutamate receptor 2 (Rattus norvegicus, UniProt P31421). Nature of the assay: Inhibition of [3H]LY-341,495 binding to mGlu2 receptors of rat brain. In short, it runs like this: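 Rat forebrain membranes (cortex, hippocampus, striatum; adult male Sprague-Dawley). Washed tissue (0.015–0.020 mg protein) incubated with 1 nM [³H]LY341495 and test compound up to 10 000 nM, in 10 mM potassium phosphate pH 7.6 + 100 mM KBr. Incubation on ice 30–45 min, then rapid filtration and scintillation counting. Nonspecific binding defined with 1 mM L-glutamate. Ki derived, N = 3.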

For the compound `N[C@@]1(C(=O)O)CC[C@H]2[C@H](C(=O)O)[C@H]21` [EGLUMETAD], the affinity corresponds to a Ki of 80 nM.
